Data published in ChEMBL document CHEMBL1129620 (J Med Chem, 1996).

The chains behind the UniProt entries cited, without tags or fusion partners.
UniProt P16257, whole entry: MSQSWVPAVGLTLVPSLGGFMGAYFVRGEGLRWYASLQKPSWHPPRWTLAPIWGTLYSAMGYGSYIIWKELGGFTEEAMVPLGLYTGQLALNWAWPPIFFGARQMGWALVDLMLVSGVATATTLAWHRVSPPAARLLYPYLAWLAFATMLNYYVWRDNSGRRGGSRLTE

What was measured:
Translocator protein [1] = target: T1, Translocator protein (Rattus norvegicus, UniProt P16257); assay: Binding affinity against peripheral-type benzodiazepine receptor (PBR) from rat cortex homogenate using [3H]-PK 11195 as radioligand
Translocator protein [2] = target: T1, Translocator protein; assay: Displacement of [3H]-Ro- 5-4864 from rat adrenal peripheral-type benzodiazepine receptor (PBR)
Translocator protein [3] = target: T1, Translocator protein; assay: Displacement [3H]-PK 11195 from rat adrenal peripheral-type benzodiazepine receptor (PBR)

| SMILES | Ki (Translocator protein [1]) [nM] | Ki (Translocator protein [2]) [nM] | Ki (Translocator protein [3]) [nM] |
| --- | --- | --- | --- |
| CN(C)C(=O)OC1=C(c2ccccc2)Oc2ccccc2-n2cccc21 | 2 | 0.8 | 1 |
| Cc1ccc(C2=C(OC(=O)N(C)C)c3cccn3-c3ccccc3O2)cc1 | 0.52 | 1.3 | 1.1 |
